From US9765328B2, “Nuclease-resistant DNA analogues” (Arizona Board of Regents on Behalf of Arizona State …, priority 2014, dated 2017)

System: phosphodiesterase I from Crotalus adamanteus venom
Assay: Nuclease stability assay, snake venom phosphodiesterase (SVPE)
Settings: 24 hours at 37° C.; denaturing PAGE

3′-tctctctctctc-2′
stability against snake venom phosphodiesterase (SVPE): completely stable
